Our source for the ΔTm values is ChEMBL document CHEMBL5154923 (J Med Chem, 2022).

In the assay the target is T1, Serine/threonine-protein kinase 17A (Homo sapiens) (UniProt Q9UEE5).
T1 sequence (whole entry): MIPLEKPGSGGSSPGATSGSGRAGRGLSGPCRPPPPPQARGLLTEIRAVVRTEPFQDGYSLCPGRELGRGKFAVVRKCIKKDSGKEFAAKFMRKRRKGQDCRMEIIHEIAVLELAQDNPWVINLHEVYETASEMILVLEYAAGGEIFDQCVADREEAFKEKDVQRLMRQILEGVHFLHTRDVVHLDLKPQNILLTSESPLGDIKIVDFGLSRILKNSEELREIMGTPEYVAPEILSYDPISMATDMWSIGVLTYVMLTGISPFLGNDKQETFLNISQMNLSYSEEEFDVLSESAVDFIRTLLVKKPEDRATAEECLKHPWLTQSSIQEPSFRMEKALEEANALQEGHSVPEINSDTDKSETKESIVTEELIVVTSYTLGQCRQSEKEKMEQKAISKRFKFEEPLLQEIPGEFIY
As to the kind of experiment: Binding affinity to human N-terminal His-tagged/ TEV cleavage fused DRAK1 (39 to 369 residues) expressed in Escherichia coli assessed as change in melting temperature at 10 uM by SYPRO orange dye based DSF assay. (DSF heats the sample and reads unfolding from a dye or from intrinsic fluorescence.)

In the case of `CN1CCN(C(=O)c2ccc3cc2OCCOCCNc2ccn4ncc-3c4n2)CC1`, the ΔTm stood at 2.1 °C.

As a reminder, the ΔTm is the shift of the melting midpoint relative to a reference.
